Target: Phosphatidylinositol 4,5-bisphosphate 3-kinase catalytic subunit beta isoform (Homo sapiens, UniProt P42338)
Test: Inhibition of PI3Kbeta (unknown origin) using PIP2 as substrate preincubated for 10 mins followed by substrate addition and measured after 1 hr by ELISA

Amino acid sequences for entries named in this document (tags omitted). A change or cut given only in a name is not applied to a line headed by its entry.
UniProt P42338: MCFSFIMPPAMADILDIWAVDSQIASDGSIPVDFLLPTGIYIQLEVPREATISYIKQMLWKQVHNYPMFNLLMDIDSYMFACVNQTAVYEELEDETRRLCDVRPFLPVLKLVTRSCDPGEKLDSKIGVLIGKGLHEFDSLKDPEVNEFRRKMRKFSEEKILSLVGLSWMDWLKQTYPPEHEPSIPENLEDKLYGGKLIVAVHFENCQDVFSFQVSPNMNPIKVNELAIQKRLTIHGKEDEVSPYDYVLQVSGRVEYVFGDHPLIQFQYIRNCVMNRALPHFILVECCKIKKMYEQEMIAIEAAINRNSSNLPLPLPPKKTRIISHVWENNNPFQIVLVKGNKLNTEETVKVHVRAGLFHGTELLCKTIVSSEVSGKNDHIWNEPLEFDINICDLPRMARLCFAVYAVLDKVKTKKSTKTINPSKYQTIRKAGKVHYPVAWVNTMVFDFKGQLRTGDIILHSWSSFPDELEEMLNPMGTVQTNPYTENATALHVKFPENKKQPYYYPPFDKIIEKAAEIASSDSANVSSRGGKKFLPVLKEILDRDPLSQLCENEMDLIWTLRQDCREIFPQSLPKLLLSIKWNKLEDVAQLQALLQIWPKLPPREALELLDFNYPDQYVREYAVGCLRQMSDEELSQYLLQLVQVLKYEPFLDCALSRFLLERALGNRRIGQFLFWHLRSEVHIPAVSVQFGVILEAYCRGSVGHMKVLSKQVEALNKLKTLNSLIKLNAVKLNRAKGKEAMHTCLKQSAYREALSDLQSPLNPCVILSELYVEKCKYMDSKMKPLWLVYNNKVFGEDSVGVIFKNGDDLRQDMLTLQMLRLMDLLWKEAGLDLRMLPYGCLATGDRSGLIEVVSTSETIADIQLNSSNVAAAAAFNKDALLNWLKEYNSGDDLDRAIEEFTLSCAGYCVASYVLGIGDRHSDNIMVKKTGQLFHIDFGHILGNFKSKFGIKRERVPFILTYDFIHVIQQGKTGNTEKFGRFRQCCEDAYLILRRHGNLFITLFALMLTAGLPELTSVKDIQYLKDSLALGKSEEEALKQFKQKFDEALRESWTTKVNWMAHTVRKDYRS

O=c1cc(N2CCOCC2)oc2c(-c3ccccc3)cccc12 [LY-294002]
IC50: 13.1 µM

From ChEMBL document CHEMBL5055672, “Design, Synthesis, Biological Evaluation, and Computational Studies of Novel Fluorinated Candidates as PI3K Inhibitors: Targeting Fluorophilic Binding Sites” (J Med Chem, 2021)
